Measurements taken from patent EP1021444B1, “3-CARBOXAMIDE DERIVATIVES OF 5H-PYRROLO[2,1-c][1,4]-BENZODIAZEPINES” (Wyeth, priority 1996, dated 1998).

The chains behind the UniProt entries cited, without tags or fusion partners.
UniProt P30518, whole entry: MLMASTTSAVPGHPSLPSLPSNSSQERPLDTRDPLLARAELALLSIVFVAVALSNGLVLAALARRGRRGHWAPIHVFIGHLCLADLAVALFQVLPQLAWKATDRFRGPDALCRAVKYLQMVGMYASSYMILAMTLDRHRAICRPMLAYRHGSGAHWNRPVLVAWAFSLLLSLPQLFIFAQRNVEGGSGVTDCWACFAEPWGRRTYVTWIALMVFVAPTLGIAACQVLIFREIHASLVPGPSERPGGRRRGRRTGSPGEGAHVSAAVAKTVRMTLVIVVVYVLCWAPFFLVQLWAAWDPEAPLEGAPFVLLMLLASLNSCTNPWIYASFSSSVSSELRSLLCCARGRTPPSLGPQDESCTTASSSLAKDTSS

Biological target: T1, Human V2 Vasopressin Receptor (Homo sapiens, UniProt P30518)
T1 construct: expressed in transfected cells; host or cells: mouse fibroblast cell line LV-2 (membrane preparation)
Experiment: Binding to membranes of mouse fibroblast cell line (LV-2) transfected with the cDNA expressing the human V2 vasopressin receptor
Experimental: Binding to Membranes of Mouse Fibroblast Cell Line (LV-2) Transfected with the cDNA Expressing the Human V2 Vasopressin Receptor
Flasks of 175 ml capacity, containing attached cells grown to confluence, are cleared of culture medium by aspiration. The flasks containing the attached cells are rinsed with 2x5 ml of phosphate buffered saline (PBS) and the liquid aspirated off each time. Finally, 5 ml of an enzyme free dissociation Hank's based solution (Specialty Media, Inc., Lafayette, NJ) is added and the flasks are left undisturbed for 2 min. The content of all flasks is poured into a centrifuge tube and the cells pelleted at 300 x g for 15 min. […] The protein content is determined by the Lowry method and the receptor membranes are suspended in 50.0 mM Tris.HCl buffer containing 0.1 mM phenylmethylsulfonylfluoride (PMSF) and 0.2% bovine serum albumin (BSA) to give 2.5 mg receptor protein per ml of suspension.
For binding experiments, the following is added in ml volume to wells of a 96 well format of a microtiter plate: 100.0 ml of 100.0 mM Tris.HCl buffer containing 0.2% heat inactivated BSA, 10.0 mM MgCl2 and a mixture of protease inhibitors: leupeptin, 1.0 mg %; aprotinin, 1.0 mg %; 1,10-phenanthroline, 2.0 mg %; trypsin inhibitor, 10.0 mg % and 0.1 mM PMSF, 20.0 ml of [^3H] […] Non specific binding is assessed in the presence of 1.0 mM of unlabeled ligand, added in 20 ml volume. […]

| Structure (SMILES) | IC50 [nM] |
| --- | --- |
| CN1CCN(C(=O)c2ccc3n2Cc2ccccc2N(C(=O)c2ccc(NC(=O)c4ccccc4-c4ccccc4)cc2Cl)C3)CC1 [Example 9] | 3.3 |
| O=C(Nc1ccc(C(=O)N2Cc3ccc(C(=O)O)n3Cc3ccccc32)c(Cl)c1)c1ccccc1-c1ccccc1 [Example 7, 10-{4-[(Bipheny-2-carbonyl)-amino]-2-chloro-benzoyl)-10,11-dihydro-5H-benzo[e]pyrrolo[1,2-a][1,4] diazepine-3-carboxylic acid] | 4.3 |
